Source: patent US20260199426A1, “CYCLIC LIPOPEPTIDE ANTIBIOTIC COMPOUNDS FOR USE IN THE TREATMENT OF PROTEIN AGGREGATION DISEASE” (DEUTSCHES ZENTRUM FÜR NEURODEGENERATIVE ERKRANKUNGEN E. V., priority 2022, published 2026)

Experiments:
medin protein = molecular target: T1, medin protein (Homo sapiens, UniProt Q08431); assay: Medin aggregation assay (ThT, TEM)
T1 sequence (Q08431 268-317 limits assumed): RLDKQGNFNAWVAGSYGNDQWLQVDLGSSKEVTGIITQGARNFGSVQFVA

TGFBI peptide = TGFBI peptide aggregation assay (ThT, TEM); settings: 85 μM TGFBI monomers, 37° C.
2N4R Tau fibrils = 2N4R Tau fibrils (Homo sapiens, UniProt P10636); assay: Saturation transfer difference (STD) NMR with Tau fibrils; settings: 48-fold excess of Ramoplanin A2 over fibrils, 37° C.
[1] = molecular target: pre-formed 2N4R Tau fibrils (Homo sapiens, UniProt P10636); assay: Tau fibril dissolution assay (pre-formed fibrils, ThT span, TEM)
2N4R Tau = 2N4R Tau (Homo sapiens, UniProt P10636); assay: Seeded Tau aggregation assay (ThT fluorescence, TEM of the fibrils formed)
[2] = fibrils formed starting from Tau monomers incubated with Ramoplanin A2

CC(C)C/C=C/C=C\C(=O)NC(CC(N)=O)C(=O)NC1C(=O)NC(c2ccc(O)cc2)C(=O)NC(CCCN)C(=O)NC(C(C)O)C(=O)NC(c2ccc(O)cc2)C(=O)NC(c2ccc(O)cc2)C(=O)NC(C(C)O)C(=O)NC(Cc2ccccc2)C(=O)NC(CCCN)C(=O)NC(c2ccc(OC3OC(CO)C(O)C(O)C3OC3OC(CO)C(O)C(O)C3O)cc2)C(=O)NC(C(C)O)C(=O)NC(c2ccc(O)cc2)C(=O)NCC(=O)NC(CC(C)C)C(=O)NC(C)C(=O)NC(c2ccc(O)c(Cl)c2)C(=O)OC1C(N)=O (stereo not drawn) [Ramoplanin A2] ({Octa(2Z,4E)dienoyl(7-Me)}-N[X1][Hpg][Orn]T[Hpg][Hpg]TF[Orn][X2]T[Hpg]GLA[ξPhg(3-Cl-4-OH)]; ester 2-C; configuration not given here)
in vitro aggregation of medin protein (ThT) (medin protein; 20 μM medin monomers, 30° C.): inhibits the in vitro aggregation of medin protein | medin oligomer vs fibril formation (TEM) (medin protein; compound/medin mixtures): medin oligomer formation competes with medin fibril formation | in vitro aggregation of TGFBI peptide (ThT) (TGFBI peptide): inhibits the in vitro aggregation of TGFBI peptide | binding to Tau fibrils (STD NMR) (2N4R Tau fibrils): STD effects | change in span of the fluorescence curves induced by Ramoplanin A2 ([1]; added to pre-formed fibrils after 25 h, mole ratios 1:0.3 and 1:1): not statistically significant | effect on already formed Tau fibrils (TEM morphology) ([1]; pre-formed Tau fibrils incubated further (for 15 h) with Ramoplanin A2): does not modify already formed Tau fibrils | seeded Tau fibrillization in vitro (ThT fluorescence) (2N4R Tau; 25 μM 2N4R Tau monomers, 1% (v/v) fibril seeds, 37° C.): inhibits seeded Tau fibrillization in vitro | Tau fibril elongation (TEM) (2N4R Tau; [2]): disrupts Tau fibril elongation | Tau fibril length (TEM) (2N4R Tau; [2]): < 100 nm

*1 amine or outer side, *2 acyl side, *3 side chain or, on linkers, in order; H or OH if unused. Where a SMILES comes first, the peptide text is derived from it. Bridges are numbered along the chain shown (N, C = ends). [ ]: non-standard residue; d: D form. The star is where a group is joined. ξ: configuration not given here. X2 = O=C(C(N[*:1])c1ccc(OC2OC(CO)C(O)C(O)C2OC2OC(CO)C(O)C(O)C2O)cc1)[*:2]; Octa(2Z,4E)dienoyl(7-Me) = CC(C)C/C=C/C=C\C(=O)*; ξPhg(3-Cl-4-OH) = NC(C(=O)O)c1ccc(O)c(Cl)c1; X1 = NC(=O)C(O[*:3])C(N[*:1])C(=O)[*:2]; Hpg = N[CH](C(=O)O)c1ccc(O)cc1; Orn = NCCC[CH](N)C(=O)O
